Measurements from patent US6635432B1, “Peptide potentiation of acid-sensory ion channel in pain” (University of Iowa Research Foundation, priority 2000, dated 2003).

What was measured:
Format in all cases: cell-based
DRASIC = target: T1, DRASIC (Mus musculus, UniProt Q6X1Y6); experiment: Two-electrode voltage-clamp of Xenopus oocytes expressing DRASIC
T1 construct: expressed in transfected cells; host or cells: Xenopus laevis oocytes (nuclear injection of pMT3 plasmid)
T1 sequence (Q6X1Y6 1-530): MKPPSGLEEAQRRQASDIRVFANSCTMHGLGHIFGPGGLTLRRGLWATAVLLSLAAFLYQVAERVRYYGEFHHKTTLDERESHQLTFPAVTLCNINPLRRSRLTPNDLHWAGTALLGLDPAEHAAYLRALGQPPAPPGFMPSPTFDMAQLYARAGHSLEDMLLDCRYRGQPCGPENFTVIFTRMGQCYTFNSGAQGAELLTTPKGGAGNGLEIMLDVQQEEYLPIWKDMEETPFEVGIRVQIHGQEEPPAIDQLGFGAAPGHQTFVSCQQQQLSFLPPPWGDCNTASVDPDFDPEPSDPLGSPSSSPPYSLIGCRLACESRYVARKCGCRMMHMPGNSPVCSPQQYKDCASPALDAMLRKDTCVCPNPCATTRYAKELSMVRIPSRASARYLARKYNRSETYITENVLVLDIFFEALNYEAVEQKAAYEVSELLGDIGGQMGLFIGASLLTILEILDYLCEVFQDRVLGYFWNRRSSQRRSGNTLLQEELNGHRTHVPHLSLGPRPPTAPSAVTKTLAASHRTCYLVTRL
From the text: (§1) Human ASICα was cloned from brain polyA RNA. Rat ASICβ and mouse DRASIC were cloned from DRG RNA. Human BNC1 was cloned as described in Price et al. (1996)(Price, M. P., Snyder, P. M., and Welsh, M. J. (1996). Cloning and expression of a novel human brain Na^+ channel. J Biol Chem 271, 7879-7882). Constructs were cloned into pMT3 for expression. The validity of the constructs was confirmed by DNA sequencing.
(§2) Expression of the cDNA constructs in Xenopus oocytes was accomplished by injection of plasmid DNA into the nucleus of defolliculated albino Xenopus laevis oocytes (Nasco, Fort Atkinson, Wis.) as described previously (Adams, C. M., Snyder, P. M., Price, M. P., and Welsh, M. J. (1998). Protons activate brain Na^+ channel 1 by inducing a conformational change that exposes a residue associated with neurodegeneration. J Biol Chem 273, 30204-30207). Plasmids were injected at concentrations of 100 ng/μl for most experiments. Oocytes were incubated in modified Barth's solution at 18° C. for 12-26 hr after injection. Cells injected with DRASIC were allowed to incubate for 24-48 hr before analysis.
(§3) Whole-cell currents in oocytes were measured using a two-electrode voltage-clamp as previously described (Adams, et al. (1998)). […]

ASICβ = target: T2, ASICβ (Rattus norvegicus, UniProt P55926); experiment: Two-electrode voltage-clamp of Xenopus oocytes expressing ASICβ
T2 construct: expressed in transfected cells; host or cells: Xenopus laevis oocytes (nuclear injection of pMT3 plasmid)
T2 sequence (P55926 1-559 isoform P55926-3): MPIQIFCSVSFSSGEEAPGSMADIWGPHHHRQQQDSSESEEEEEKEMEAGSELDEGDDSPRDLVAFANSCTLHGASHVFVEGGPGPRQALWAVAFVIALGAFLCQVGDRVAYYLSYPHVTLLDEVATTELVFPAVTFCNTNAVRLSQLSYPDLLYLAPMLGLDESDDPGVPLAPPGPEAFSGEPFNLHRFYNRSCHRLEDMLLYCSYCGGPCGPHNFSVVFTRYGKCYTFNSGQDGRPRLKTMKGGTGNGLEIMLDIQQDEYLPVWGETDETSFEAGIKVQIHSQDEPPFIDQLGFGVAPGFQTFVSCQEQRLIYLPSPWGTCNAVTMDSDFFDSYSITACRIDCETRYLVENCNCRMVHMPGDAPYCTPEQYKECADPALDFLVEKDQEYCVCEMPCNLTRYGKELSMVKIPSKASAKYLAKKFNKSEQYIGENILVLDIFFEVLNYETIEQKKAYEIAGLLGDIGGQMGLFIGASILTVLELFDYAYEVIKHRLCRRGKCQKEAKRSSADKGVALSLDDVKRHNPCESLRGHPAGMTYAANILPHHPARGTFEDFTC
From the text: as §1, §2, §3

[1] = test system: proton-gated currents in cultured rat DRG neurons; experiment: Whole-cell patch-clamp of proton-gated currents in cultured DRG neurons
Protocol: Rat DRG neurons were cultured from Norway rats as described in Benson et al. (1999)(Benson, C. J., Eckert, S. P., and McCleskey, E. W. (1999). Acid-evoked currents in cardiac sensory neurons: A possible mediator of myocardial ischemic sensation. Circulation Research 84, 921-928). Cells were allowed to incubate overnight at room temperature and studies were done 1 to 2 days after isolation.
During whole-cell patch-clamping of DRG neurons and transfected HEK-293T cells, the cells were bathed with an extracellular solution that contained, in mM: 128 NaCl, 5 MgCl2, 1.8 CaCl2, 5.4 KCl, 5.55 glucose, 20 HEPES, pH 7.5 or 5. The pipette solution contained, in mM: 120 KCl, 10 NaCl, 2 MgCl2, 5 EGTA, 10 HEPES. Perfusion of cells with different solutions was done by placing the appropriate outlet in front of the cell. Data were recorded with an AXOPATCH 200 (Axon Instruments, Foster City, Calif.) and stored on a digital tape recorder. Digitization was executed by acquiring data at 400 Hz using pClamp6 (Axon Instruments, Foster City, Calif.).
Whole-cell patch-clamp recordings were used to investigate the effect of FMRFamide on proton-gated currents in cultured rat DRG neurons. […]

For `CSCC[C@H](NC(=O)[C@@H](N)Cc1ccccc1)C(=O)N[C@@H](CCCNC(=N)N)C(=O)N[C@@H](Cc1ccccc1)C(N)=O` [FMRFamide, Phe-Met-Arg-Phe amide], the “effect on H+-gated DRASIC current (transient and sustained)” value (DRASIC; pH 4, peptide 100 μM) was “slowed inactivation of the transient current and increased the sustained current”, the “effect on H+-gated DRASIC current (inactivation, sustained current)” value (DRASIC; pH 5, FMRFamide 50 or 100 μM) was “inactivation was slowed and a sustained current was more apparent” and the “effect on H+-gated ASICβ current (inactivation, sustained current)” value (ASICβ; pH 5, peptide 50 μM) was “slowing of inactivation and the appearance of a sustained current at pH 5”. For the same molecule, the “effect of peptide alone on channel” value (ASICβ; pH 7.4) was “had no effect on either channel”, the “effect on inactivation of proton-gated current and sustained current” value ([1]; pH 5, FMRFamide 50-100 μM, neuropeptide FF 50 μM) was “the inactivation of proton-dependent current slowed, and in many neurons, there was a sustained current in the continued presence of acid” and the “current generated by agent added alone” value ([1]; without acidification) was “generated no response”.
